Experimental data: article PMC3474356 (Chemistry & biology, 2011)

System: pfCYT bc1
Type: biochemical
Details: ratio of IC50 hsCYT bc1 / pfCYT bc1

**Q.** Which “selectivity pfCYT bc1 compared to hsCYTbc1” value does the source give for `O=C1C(O)=C([C@H]2CC[C@H](c3ccc(Cl)cc3)CC2)C(=O)c2ccccc21` [atovaquone] here?
**A.** 1750 fold
